{"sequences": {"note": "By UniProt entry, the sequences of proteins in these tests, tags left out. Residues count along the entry.", "UniProt P31652, whole entry": "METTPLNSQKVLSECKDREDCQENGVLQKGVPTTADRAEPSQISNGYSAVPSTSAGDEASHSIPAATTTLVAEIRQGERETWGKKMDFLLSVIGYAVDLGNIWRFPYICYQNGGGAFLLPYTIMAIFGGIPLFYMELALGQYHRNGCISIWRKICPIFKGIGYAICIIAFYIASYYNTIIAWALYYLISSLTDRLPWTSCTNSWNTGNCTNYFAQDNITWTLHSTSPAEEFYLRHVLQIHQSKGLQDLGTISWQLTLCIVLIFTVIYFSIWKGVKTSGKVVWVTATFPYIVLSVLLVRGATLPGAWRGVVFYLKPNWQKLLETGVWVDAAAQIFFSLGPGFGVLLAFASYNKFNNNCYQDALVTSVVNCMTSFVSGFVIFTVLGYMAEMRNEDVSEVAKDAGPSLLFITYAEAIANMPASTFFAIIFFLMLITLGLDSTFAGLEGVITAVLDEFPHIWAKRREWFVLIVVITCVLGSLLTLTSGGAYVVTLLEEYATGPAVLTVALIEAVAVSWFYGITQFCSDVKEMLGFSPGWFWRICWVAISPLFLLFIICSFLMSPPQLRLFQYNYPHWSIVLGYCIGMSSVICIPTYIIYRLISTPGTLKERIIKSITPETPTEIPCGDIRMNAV", "UniProt Q63380, 1-617": "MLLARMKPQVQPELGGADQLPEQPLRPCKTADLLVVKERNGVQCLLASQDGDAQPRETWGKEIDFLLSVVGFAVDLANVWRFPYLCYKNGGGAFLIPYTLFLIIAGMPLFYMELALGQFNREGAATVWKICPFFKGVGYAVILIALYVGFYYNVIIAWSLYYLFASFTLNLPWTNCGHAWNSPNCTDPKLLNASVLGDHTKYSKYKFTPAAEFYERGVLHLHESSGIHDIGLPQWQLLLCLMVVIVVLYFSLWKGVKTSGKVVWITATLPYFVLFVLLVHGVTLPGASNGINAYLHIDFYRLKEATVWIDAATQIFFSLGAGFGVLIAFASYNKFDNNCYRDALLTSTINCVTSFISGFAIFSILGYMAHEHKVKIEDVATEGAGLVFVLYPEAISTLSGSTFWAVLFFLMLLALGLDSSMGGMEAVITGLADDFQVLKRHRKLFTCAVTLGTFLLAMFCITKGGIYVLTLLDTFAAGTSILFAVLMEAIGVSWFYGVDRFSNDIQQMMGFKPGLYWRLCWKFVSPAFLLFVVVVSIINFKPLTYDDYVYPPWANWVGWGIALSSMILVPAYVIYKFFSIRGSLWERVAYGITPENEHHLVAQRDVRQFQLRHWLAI"}, "source": "patent US8211916B2", "key": {"rat SERT": {"target": "T1, rat SERT (Rattus norvegicus, UniProt P31652)", "T1 construct": "from tissue; host or cells: rat striatum (membranes)", "assay": "Rat SERT binding, [3H]citalopram, striatal membranes"}, "[1]": {"target": "T2, Norepinephrine (NET) Transporter (Rattus norvegicus, UniProt Q63380)", "T2 construct": "and norepinephrine Transporters in Rat Striatum; from tissue", "assay": "NET binding, [3H]nisoxetine"}}}
{"smiles": "COC(=O)[C@H]1[C@@H](OC(=O)c2ccccc2)C[C@@H]2CC[C@H]1N2C", "note": "[Cocaine, reference compound]", "values": [{"measurement": "IC50", "setting": "rat SERT", "result": "737 ± 160", "unit": "nM"}, {"measurement": "IC50", "setting": "[1]", "result": 3.53, "unit": "µM"}]}
